Test results taken from patent publication US9540307B2, “Statins of omega-3 polyunsaturated acids for treating hypercholesterolemia” (Jiva Pharma, Inc., priority 2014, dated 2017).

Biological target: T1, soluble catalytic domain fragment of human HMG reductase (Homo sapiens, UniProt P04035)
T1 construct: composed of insoluble transmembrane segment and soluble catalytic domain; purchased Sigma-Aldrich CS 1090
T1 sequence (P04035 340-888 limits assumed): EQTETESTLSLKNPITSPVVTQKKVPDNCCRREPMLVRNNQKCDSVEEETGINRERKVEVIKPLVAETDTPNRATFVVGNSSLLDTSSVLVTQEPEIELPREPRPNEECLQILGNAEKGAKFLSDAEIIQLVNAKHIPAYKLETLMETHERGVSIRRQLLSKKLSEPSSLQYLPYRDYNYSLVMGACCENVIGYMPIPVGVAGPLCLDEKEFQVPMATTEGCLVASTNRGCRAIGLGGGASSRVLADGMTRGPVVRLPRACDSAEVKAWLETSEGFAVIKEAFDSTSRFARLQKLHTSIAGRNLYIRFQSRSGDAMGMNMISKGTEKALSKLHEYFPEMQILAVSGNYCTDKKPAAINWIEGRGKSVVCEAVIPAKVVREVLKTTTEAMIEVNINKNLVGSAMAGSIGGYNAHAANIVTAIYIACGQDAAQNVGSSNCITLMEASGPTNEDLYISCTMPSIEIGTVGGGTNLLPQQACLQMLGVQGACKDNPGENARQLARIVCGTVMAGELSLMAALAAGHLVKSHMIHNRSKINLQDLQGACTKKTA
Assay: HMG-Co-A reductase inhibition activity, dose-response curves (Sigma-Aldrich assay kit, absorbance at 340 nm)
Assay type: biochemical
Conditions: NADP(H) 250 μM, sub-saturating NADP(H) and coenzyme A; decrease in absorbance at 340 nm; read-out: IC50 μM error
Description: The utility of the compounds of Formula (I) and Formula (II) are provided below using the following materials and techniques as referenced in the procedure below: • 1. SigmaAldrich. […] In: catalog number CS 1090. […].com/catalog/product/[…]®ion=HR. […] Holdgate G, Ward […]. […] Louis-Flamberg […], Bryan D L, Leber J, Elliott […] et al. […] Nakamura C E, Abeles R H. Mode of interaction of β-hydroxy-β-methylglutaryl coenzyme A reductase with strong binding inhibitors: compactin and related compounds. […], Buchanan […]. Crystal structure of the catalytic portion of human HMG-CoA reductase: insights into regulation of activity and catalysis. […] Motulsky H, Christopoulos A. Fitting Models to Biological Data Using Linear and Nonlinear Regression: A Practical Guide to Curve Fitting Oxford University Press, USA; 1 edition 2004. Procedure: […] Briefly, the dose-response curves have been measured using soluble catalytic domain fragment of human HMG reductase. […] The activity was measured by following decrease in a sample's absorbance at 340 nm caused by enzymatic oxidation of NADP(H) in presence of coenzyme A. […] NADP(H) concentration in the assay mix was adjusted to 250 μM. […] Stock solutions of Na salts of EPA-statin, ALA-statin were prepared in assay buffer in concentration of 50 mM, and subsequently diluted to lower concentrations in the same buffer as needed.

CC[C@H](C)C(=O)O[C@H]1C[C@H](O)C=C2C=C[C@H](C)[C@H](CC[C@@H](O)C[C@@H](O)CC(=O)O)[C@H]21 [Pravastatin, reference compound]
IC50: 1.2 ± 1 µM
